The numbers were not newly measured in patent US20030232862A1, “Method for treating a patient with neoplasia using Iressa” (priority 2002, published 2003), which cites them from elsewhere.

In the data set the test system is EGFR, HER2, and HER3 phosphorylation. Particulars: cited from earlier work.

On to `COc1cc2ncnc(Nc3ccc(F)c(Cl)c3)c2cc1OCCCN1CCOCC1` [Iressa, 4-quinazolinamine, N-(3-chloro-4-fluorophenyl)-7-methoxy-6-[3-(4-morpholinyl)propoxy]-(9CI)], for which the “EGFR, HER2, and HER3 phosphorylation” value is “eliminates EGFR, HER2, and HER3 phosphorylation”.
